SMILES strings stand for the structures.

Amino acid sequences for entries named in this document (tags omitted).
UniProt Q15910, whole entry Y641F: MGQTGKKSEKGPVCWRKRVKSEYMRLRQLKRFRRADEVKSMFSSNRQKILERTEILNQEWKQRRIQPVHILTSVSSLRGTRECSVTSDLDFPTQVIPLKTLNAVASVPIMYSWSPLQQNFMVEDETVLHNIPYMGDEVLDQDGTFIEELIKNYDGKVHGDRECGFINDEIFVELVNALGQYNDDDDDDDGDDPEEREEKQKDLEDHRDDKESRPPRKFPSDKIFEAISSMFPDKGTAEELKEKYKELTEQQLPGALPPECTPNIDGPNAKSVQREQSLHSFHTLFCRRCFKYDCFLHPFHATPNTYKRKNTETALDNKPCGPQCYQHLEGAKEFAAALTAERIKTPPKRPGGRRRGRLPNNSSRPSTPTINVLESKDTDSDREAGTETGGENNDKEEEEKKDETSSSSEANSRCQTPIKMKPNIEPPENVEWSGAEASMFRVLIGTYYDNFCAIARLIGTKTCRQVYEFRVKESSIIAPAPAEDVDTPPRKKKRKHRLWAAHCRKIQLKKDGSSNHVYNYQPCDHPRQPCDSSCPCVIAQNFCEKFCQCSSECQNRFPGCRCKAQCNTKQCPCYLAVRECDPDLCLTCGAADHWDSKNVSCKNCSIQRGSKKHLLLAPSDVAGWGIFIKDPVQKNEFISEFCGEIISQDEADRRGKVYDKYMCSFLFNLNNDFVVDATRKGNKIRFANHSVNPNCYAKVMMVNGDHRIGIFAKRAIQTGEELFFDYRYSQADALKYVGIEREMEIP
UniProt O75530, whole entry partner: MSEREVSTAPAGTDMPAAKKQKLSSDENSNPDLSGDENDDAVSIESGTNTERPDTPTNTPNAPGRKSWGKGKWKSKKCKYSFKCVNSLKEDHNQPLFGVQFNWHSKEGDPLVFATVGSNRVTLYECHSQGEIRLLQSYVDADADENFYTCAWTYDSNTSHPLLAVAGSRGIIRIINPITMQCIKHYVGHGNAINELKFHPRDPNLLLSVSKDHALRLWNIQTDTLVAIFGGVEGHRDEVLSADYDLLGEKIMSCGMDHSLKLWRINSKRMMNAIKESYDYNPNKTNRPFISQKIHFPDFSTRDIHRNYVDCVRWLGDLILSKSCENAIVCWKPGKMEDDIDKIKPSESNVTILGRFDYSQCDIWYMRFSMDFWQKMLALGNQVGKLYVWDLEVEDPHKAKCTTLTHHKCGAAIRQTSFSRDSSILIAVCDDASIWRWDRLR
UniProt Q15022, whole entry partner: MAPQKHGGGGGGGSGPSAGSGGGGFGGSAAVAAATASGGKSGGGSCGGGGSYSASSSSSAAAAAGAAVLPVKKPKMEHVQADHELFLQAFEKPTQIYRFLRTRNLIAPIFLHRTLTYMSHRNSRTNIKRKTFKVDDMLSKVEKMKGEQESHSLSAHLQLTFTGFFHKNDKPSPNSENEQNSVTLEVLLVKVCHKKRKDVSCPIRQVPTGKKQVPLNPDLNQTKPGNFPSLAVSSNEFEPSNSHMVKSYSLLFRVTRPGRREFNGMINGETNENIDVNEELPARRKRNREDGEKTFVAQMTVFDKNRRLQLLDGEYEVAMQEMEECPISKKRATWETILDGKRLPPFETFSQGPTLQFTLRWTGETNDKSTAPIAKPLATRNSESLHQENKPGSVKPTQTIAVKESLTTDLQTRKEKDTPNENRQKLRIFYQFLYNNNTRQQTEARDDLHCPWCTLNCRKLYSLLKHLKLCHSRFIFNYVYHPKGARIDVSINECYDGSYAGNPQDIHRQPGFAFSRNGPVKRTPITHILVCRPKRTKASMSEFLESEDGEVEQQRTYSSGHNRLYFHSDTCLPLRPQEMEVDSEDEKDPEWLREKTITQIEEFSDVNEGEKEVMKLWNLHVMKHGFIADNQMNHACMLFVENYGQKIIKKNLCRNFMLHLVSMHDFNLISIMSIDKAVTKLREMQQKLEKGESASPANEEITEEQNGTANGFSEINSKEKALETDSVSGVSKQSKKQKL
UniProt Q09028, whole entry partner: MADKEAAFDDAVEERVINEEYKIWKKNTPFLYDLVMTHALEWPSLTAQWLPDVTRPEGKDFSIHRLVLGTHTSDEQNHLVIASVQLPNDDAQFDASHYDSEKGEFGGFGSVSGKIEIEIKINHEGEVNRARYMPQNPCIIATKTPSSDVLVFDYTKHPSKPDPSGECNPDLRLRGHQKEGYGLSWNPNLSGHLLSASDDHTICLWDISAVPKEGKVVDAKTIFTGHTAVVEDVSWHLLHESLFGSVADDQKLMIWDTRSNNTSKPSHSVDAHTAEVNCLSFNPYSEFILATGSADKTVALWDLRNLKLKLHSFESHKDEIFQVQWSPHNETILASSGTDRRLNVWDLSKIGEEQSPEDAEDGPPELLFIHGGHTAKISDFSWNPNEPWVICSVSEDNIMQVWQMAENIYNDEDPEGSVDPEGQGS
UniProt Q6ZN18, whole entry partner: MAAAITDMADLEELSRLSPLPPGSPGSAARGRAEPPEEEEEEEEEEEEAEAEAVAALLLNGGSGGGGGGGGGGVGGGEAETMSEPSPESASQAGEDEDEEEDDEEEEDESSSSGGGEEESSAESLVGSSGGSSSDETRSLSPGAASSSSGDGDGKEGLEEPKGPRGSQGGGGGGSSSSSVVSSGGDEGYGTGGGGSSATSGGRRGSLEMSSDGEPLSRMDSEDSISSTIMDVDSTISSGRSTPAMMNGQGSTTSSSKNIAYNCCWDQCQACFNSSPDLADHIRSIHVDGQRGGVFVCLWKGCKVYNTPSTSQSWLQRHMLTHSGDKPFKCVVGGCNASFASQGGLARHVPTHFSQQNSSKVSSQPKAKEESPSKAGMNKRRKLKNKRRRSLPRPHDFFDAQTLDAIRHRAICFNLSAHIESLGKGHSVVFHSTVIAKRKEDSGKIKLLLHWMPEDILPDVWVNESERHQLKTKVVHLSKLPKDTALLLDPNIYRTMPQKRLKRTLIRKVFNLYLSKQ

Test [1] concerns Pfeiffer cells. The test can be described thus: Cell proliferation assay (Cell counting kit-8, 6 days). The settings on record: read-out: Pfeiffer IC50; Pfeiffer (CRL-2632), 6 days culture. The protocol: The used cell lines Pfeiffer (CRL-2632), suDHL-6 (CRL-2959) and suDHL-10 (CRL-2963) were obtained from American Type Culture Collection (ATCC). All cell lines were cultured in RPMI-1640 medium (Gibco) containing 10% fetal bovine serum (Gibco). The cultured cells were harvested by centrifugation and the cell density was determined using a CounterStar cell counter. Appropriate number of cells were plated in a 96-well culture plate and incubated overnight. Compounds to be tested were diluted by 8 gradient points in a ratio of 1:3 and added into corresponding wells. After continuing to culture for 6 days, the number of viable cells was measured with Cell counting kit-8, and the absorbance value was read on Tecan infinite pro. The IC50 was calculated by fitting in a four-parameter model in the XLfit software.
On the technique in general: Tetrazolium dyes change colour on reduction, which living cells bring about.

Test [2] deals with Recombinant PRC2 (EZH2-Y641F) (Homo sapiens (Human), UniProt Q15910, Y641F). The test can be described thus: In vitro methyltransferase activity assay (LANCE Ultra). Particulars: read-out: EZH2 Y641F IC50; 2.5 μM SAM/250 nM H3(1-50)K27me1, 3 hours, room temperature. How it is done:
Recombinant PRC2 (EZH2-Y641F) was purchased from Active motif, S-adenosyl-methionine (SAM) and Poly-L-lysine (PLL) were purchased from Sigma-Aldrich, and H3(1-50)K27me1 peptide was purchased from Cisbio. LANCEUltrasystem (Perkinelmer) was used for detection system. In the enzyme activity test, compounds to be tested were diluted by 8 gradient points in a ratio of 1:3, and added into each well in a reaction plate, and 100 ng recombinase was added, followed by a buffer [20 mM Tris pH8.5, 2 mM MgCl2, 0.01% Tween-20, 1 mM TCEP] containing 2.5 μM SAM/250 nM H3 (1-50)K27me1 premixtures. Enzymatic reaction thus began at room temperature. After reacted for 3 hours, a detection solution premixed with PLL, detection antibody and Ulight was added, and reacted for 1 hour at room temperature. The fluorescence value was then read on a Tecan infinite pro. IC50 was calculated by fitting in a four-factor model in the XLfit software.
(Time-resolved FRET reads energy transfer from a long-lived donor to a nearby acceptor.)

In the case of `CCN(c1cc(C(=O)NCc2c(C)cc(C)[nH]c2=O)c(C)c2c1cnn2C)C1CCC(N(C)C)CC1` (stereo not drawn), the IC50 (in general, the concentration at which inhibition is half-maximal) in test [1] was greater than 3 µM.

On to `CCN(c1cc(C(=O)NCc2c(C)cc(C)[nH]c2=O)c(C)c2c1cnn2C)C1CCC(N2CC(OC)C2)CC1` (stereo not drawn), for which the values for the IC50 in test [2] and in test [1] were greater than 10 µM and greater than 3 µM, respectively.

Values taken from patent publication US11104664B2, “4,5,6-trisubstituted indazole derivatives, and preparation method and pharmaceutical use thereof” (SHANGHAI HAIYAN PHARMACEUTICAL TECHNOLOGY CO., LTD., priority 2016, dated 2021).
